Conditions: mouse, in vivo, ip

**Q.** With “4-O-[^18F]FluoroPEG3-2-(1H-pyrrolo[2,3-c]pyridine-1-yl)pyridine [[^18F]FAZIN3]” as the substance, how does the clearance route read?
**A.** clear from the liver to the lower GI tract as well as to the urinary bladder

— US20220008563A1, “RADIOLABELLED AND NONRADIOLABELLED PEGYLATED COMPOUNDS AND USES THEREOF” (The Regents of the University of California, priority 2020, published 2022)
